Test results taken from patent US20070025991A1, “Use of antagonists of ghrelin or ghrelin receptor to treat intestinal inflammation” (priority 2003, published 2007).

Test system: ghrelin receptor (GHS-R) mRNA
Experiment: TNBS-induced colitis, colonic GHS-R mRNA by quantitative real time PCR
Conditions: colon
Protocol: The procedure for TNBS colitis was performed as previously described (Mazelin, L. et al., Life Sci., 63:293-304 (1998)). Briefly, after an overnight fasting, all animals were lightly anaesthetized by an intraperitoneal injection of pentobarbital sodium (70 mg/kg). A polyethylene cannula (Intramedic PE-20 tubing, Becton Dickinson, Parsippany, N.J.) was introduced into the colon (˜3.0 cm) via the anus.
A solution (100 μl) of 40% ethanol (vehicle) or ethanol-containing TNBS (100 mg/kg; Fluka, Ronkonkoma, N.Y.) was instilled into the colon using a 1 ml syringe. Animals were held head down for one minute after the enema to ensure the permanence of the TNBS solution into the colon. […] After recording the body weight, the whole colon was removed, opened longitudinally, washed in ice-cold saline and its length (cm) and weight (mg) recorded.
Total RNA were prepared using a standard procedure described previously (Chomczynski, P. and Sacchi, N., Anal. Biochem., 162:156-159 (1987)). Equal amount of total RNA was used to detect the expression of ghrelin and GHS-R mRNA by regular RT-PCR, and to quantify the levels of ghrelin and GHS-R mRNA by real time PCR. […]
To examine the expression of ghrelin and its receptor (GHS-R), total RNA was isolated from the removed colons and their mRNA levels were determined by a quantitative real time PCR technique.

O=[N+]([O-])c1cc([N+](=O)[O-])c(S(=O)(=O)O)c([N+](=O)[O-])c1
levels of GHS-R remained increased as compared to control (4 days after TNBS treatment (100 mg/kg, rectal)): 5-6 fold
levels of GHS-R increased as compared to control (one day after TNBS treatment (100 mg/kg, rectal)): up to 76 fold
